The text below walks through data of patent US9242993B2, “Morpholino substituted bicyclic pyrimidine urea or carbamate derivatives as mTOR inhibitors” (CELLZOME LIMITED, priority 2011, dated 2016).

The chains behind the UniProt entries cited, without tags or fusion partners. Where a name states a change or a piece, a line headed by the entry shows the natural chain unless it says otherwise.
UniProt P48736: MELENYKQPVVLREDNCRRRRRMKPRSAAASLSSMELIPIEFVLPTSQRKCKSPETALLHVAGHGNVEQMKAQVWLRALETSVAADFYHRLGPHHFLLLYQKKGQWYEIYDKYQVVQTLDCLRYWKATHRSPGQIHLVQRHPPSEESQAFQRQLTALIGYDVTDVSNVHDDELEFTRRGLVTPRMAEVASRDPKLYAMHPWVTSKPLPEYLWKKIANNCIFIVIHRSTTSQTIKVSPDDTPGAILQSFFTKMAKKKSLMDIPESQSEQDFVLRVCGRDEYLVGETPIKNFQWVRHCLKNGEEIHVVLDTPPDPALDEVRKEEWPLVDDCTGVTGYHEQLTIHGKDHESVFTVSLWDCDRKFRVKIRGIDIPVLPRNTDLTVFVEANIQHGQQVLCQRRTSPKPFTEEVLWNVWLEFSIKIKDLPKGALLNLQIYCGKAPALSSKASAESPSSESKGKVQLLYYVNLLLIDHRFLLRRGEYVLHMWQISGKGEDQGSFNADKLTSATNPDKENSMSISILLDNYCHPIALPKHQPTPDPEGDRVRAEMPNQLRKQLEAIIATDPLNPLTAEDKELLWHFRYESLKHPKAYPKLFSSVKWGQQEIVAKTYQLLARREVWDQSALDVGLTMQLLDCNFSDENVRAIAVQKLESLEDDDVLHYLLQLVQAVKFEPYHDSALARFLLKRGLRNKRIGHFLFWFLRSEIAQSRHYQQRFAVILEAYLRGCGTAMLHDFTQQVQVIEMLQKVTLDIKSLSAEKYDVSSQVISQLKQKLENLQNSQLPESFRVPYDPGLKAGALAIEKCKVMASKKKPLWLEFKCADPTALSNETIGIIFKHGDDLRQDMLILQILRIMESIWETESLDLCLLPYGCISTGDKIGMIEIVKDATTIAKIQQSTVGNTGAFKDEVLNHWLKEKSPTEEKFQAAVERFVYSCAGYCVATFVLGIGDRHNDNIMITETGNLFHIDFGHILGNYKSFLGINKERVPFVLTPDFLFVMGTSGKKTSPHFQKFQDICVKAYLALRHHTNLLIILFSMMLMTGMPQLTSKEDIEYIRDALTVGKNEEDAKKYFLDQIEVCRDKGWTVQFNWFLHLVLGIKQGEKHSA
UniProt O00329: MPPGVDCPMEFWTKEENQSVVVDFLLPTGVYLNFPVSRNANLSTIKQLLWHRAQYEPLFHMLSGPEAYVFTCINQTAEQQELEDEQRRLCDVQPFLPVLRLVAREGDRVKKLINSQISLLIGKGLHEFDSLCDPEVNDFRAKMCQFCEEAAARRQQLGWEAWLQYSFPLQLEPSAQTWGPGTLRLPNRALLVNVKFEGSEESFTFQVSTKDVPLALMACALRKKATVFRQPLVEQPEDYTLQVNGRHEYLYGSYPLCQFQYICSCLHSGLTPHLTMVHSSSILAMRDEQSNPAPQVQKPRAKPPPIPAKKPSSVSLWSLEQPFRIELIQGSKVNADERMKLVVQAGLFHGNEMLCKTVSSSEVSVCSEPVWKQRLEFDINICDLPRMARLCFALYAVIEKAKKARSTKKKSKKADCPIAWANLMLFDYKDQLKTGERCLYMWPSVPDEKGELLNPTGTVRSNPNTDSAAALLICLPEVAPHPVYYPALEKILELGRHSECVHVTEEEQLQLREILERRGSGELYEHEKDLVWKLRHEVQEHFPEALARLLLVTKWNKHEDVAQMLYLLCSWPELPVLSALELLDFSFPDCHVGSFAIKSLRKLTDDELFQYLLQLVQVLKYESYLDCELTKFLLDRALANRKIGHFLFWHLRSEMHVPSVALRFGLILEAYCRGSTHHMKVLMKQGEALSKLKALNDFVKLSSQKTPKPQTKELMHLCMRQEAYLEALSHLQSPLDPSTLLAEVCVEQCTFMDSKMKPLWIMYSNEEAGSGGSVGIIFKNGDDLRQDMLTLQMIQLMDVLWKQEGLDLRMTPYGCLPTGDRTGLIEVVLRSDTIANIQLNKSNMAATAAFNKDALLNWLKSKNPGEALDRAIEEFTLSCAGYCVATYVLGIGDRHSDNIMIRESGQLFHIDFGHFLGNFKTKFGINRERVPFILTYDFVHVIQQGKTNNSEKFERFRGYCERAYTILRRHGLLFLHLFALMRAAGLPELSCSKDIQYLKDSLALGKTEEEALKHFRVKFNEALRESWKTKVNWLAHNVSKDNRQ
UniProt P42338: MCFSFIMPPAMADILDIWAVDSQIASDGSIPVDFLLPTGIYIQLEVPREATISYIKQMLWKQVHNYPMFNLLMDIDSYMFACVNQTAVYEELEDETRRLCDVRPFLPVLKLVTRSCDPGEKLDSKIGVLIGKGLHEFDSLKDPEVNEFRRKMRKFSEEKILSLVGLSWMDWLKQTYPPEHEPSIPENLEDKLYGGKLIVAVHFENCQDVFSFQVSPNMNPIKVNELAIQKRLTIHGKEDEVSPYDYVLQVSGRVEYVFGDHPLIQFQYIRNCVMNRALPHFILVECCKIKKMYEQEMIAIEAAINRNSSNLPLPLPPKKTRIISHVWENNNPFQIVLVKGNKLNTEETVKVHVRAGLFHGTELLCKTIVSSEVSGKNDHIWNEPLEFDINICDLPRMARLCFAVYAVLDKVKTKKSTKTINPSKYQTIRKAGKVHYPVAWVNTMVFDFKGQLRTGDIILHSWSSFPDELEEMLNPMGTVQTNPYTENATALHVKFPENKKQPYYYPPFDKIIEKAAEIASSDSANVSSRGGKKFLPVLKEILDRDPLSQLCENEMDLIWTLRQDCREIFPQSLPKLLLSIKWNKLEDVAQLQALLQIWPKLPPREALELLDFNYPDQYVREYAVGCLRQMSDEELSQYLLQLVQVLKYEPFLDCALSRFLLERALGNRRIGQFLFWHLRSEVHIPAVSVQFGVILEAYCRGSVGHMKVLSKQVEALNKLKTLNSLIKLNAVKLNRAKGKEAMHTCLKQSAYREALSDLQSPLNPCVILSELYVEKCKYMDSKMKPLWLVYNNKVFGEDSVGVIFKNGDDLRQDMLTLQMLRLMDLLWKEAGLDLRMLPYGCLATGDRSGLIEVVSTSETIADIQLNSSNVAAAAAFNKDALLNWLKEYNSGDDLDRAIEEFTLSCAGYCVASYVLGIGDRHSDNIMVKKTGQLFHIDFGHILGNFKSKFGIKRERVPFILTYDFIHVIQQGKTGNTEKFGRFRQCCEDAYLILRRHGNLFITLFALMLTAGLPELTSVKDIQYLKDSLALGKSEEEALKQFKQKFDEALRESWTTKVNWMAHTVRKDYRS
UniProt P42336, whole entry: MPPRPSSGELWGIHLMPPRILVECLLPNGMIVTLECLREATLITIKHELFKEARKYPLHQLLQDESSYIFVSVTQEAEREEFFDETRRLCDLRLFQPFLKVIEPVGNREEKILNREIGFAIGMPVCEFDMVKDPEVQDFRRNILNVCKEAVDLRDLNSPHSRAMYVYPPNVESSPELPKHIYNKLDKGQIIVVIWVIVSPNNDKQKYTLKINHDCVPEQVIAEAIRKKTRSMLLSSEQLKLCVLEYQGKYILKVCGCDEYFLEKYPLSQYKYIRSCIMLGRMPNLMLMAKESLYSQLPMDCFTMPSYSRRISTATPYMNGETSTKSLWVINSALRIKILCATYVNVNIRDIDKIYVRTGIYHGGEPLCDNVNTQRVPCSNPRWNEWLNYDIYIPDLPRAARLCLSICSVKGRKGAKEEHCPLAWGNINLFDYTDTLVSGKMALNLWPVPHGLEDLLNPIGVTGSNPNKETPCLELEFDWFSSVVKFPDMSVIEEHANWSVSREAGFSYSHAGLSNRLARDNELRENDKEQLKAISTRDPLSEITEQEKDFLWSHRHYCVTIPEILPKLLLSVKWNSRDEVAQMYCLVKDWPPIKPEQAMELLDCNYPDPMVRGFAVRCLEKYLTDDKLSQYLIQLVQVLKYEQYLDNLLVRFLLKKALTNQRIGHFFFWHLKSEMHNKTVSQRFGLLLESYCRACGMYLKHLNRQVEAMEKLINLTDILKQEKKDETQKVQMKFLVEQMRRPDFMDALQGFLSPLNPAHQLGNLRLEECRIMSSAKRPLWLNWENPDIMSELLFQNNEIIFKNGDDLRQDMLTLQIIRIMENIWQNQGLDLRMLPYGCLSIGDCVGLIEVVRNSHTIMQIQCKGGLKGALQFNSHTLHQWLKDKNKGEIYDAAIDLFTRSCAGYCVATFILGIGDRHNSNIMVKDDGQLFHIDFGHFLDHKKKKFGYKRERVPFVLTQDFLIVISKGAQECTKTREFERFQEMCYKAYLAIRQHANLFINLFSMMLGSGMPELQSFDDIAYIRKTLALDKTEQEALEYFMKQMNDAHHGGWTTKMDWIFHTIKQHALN

pIC50: −log10 of the molar value.

Type in all cases: binding
One assay concerns the target PI3K gamma (PI3 Kg) (Homo sapiens, UniProt P48736). Description: kinobeads assay, PI3K gamma. The note with it: Jurkat cell lysate, read-out: PI3Kg inhibition value (IC50), activity level.
A further assay addresses PI3K delta (PI3 Kd) (Homo sapiens, UniProt O00329). Description: kinobeads assay, PI3K delta. Conditions: Jurkat cell lysate, read-out: PI3Kd inhibition value (IC50), activity level.
Another assay addresses PI3K beta (PI3 Kb) (Homo sapiens, UniProt P42338). Description: kinobeads assay, PI3K beta. The note with it: Jurkat cell lysate, read-out: PI3Kb inhibition value (IC50), activity level.
The next assay concerns the target PI3K alpha (PI3Ka) (Homo sapiens, UniProt P42336). Description: kinobeads assay, PI3K alpha. Conditions: Jurkat cell lysate, read-out: PI3Ka inhibition value (IC50), activity level.

In general, pIC50 refers to the IC50 on a negative log10 scale, so that one unit is a factor of ten. Regarding `C[C@H]1COCCN1c1nc(-c2ccc(NC(=O)NCCF)cc2)nc2c1CS(=O)(=O)C2` [Example 14, (S)-1-(2-fluoroethyl)-3-(4-(4-(3-methylmorpholino)-6,6-dioxido-5,7-dihydrothieno[3,4-d]pyrimidin-2-yl)phenyl)urea], the pIC50 at PI3K gamma (PI3 Kg), on PI3K delta (PI3 Kd), on PI3K beta (PI3 Kb) and at PI3K alpha (PI3Ka) was below 5.00 throughout.
For `CCNC(=O)Nc1ccc(-c2nc3c(c(N4CCOC[C@@H]4C)n2)C(C)S(=O)(=O)C3)cc1` (stereo partly drawn) [Example 38, 1-ethyl-3-(4-(5-methyl-4-((S)-3-methylmorpholino)-6,6-dioxido-5,7-dihydrothieno[3,4-d]pyrimidin-2-yl)phenyl)urea], the pIC50 at PI3K gamma (PI3 Kg) is below 5.00; on PI3K delta (PI3 Kd) it was below 5.00; on PI3K beta (PI3 Kb), below 5.00; at PI3K alpha (PI3Ka), 5.00 to 6.00.
Regarding `CNC(=O)Nc1ccc(-c2nc(N3CCOC[C@@H]3C)c3c(n2)C(C)(C)S(=O)(=O)C3)cc1` [Example 57, (S)-1-(4-(7,7-dimethyl-4-(3-methylmorpholino)-6,6-dioxido-5,7-dihydrothieno[3,4-d]pyrimidin-2-yl)phenyl)-3-methylurea], the pIC50 at PI3K gamma (PI3 Kg), at PI3K delta (PI3 Kd), on PI3K beta (PI3 Kb) and on PI3K alpha (PI3Ka) was below 5.00 throughout.
On to `CCNC(=O)Nc1ccc(-c2nc(N3CCOC[C@@H]3C)c3c(n2)C(C)(C)S(=O)(=O)C3)cc1` [Example 62, (S)-1-(4-(7,7-dimethyl-4-(3-methylmorpholino)-6,6-dioxido-5,7-dihydrothieno[3,4-d]pyrimidin-2-yl)phenyl)-3-ethylurea], for which the pIC50 on PI3K gamma (PI3 Kg), on PI3K delta (PI3 Kd), on PI3K beta (PI3 Kb) and on PI3K alpha (PI3Ka) was below 5.00 each time.
In the case of `CCNC(=O)Nc1ccc(-c2nc3c(c(N4CCOC[C@@H]4C)n2)[C@H](C)S(=O)(=O)C3)cc1` [Example 40, 1-ethyl-3-(4-((S)-5-methyl-4-((S)-3-methylmorpholino)-6,6-dioxido-5,7-dihydrothieno[3,4-d]pyrimidin-2-yl)phenyl)urea], the negative-log IC50 (pIC50) on PI3K gamma (PI3 Kg) was below 5.00; on PI3K delta (PI3 Kd), below 5.00; at PI3K beta (PI3 Kb) it was below 5.00; on PI3K alpha (PI3Ka) it was 5.00 to 6.00.
With `CC[C@H]1COCCN1c1nc(-c2ccc(NC(=O)NC3CC3)cc2)nc2c1C(C)S(=O)(=O)C2` (stereo partly drawn) [Example 47, 1-cyclopropyl-3-(4-(4-((S)-3-ethylmorpholino)-5-methyl-6,6-dioxido-5,7-dihydrothieno[3,4-d]pyrimidin-2-yl)phenyl)urea], the pIC50 on PI3K gamma (PI3 Kg), on PI3K delta (PI3 Kd), at PI3K beta (PI3 Kb) and on PI3K alpha (PI3Ka) was below 5.00 in each case.
As to `CCNC(=O)Nc1ccc(-c2nc3c(c(N4CCOC[C@@H]4CC)n2)[C@@H](C)S(=O)(=O)C3)cc1` [Example 52, 1-ethyl-3-(4-((R)-4-((S)-3-ethylmorpholino)-5-methyl-6,6-dioxido-5,7-dihydrothieno[3,4-d]pyrimidin-2-yl)phenyl)urea], the negative logarithm of the IC50 (pIC50) at PI3K gamma (PI3 Kg), on PI3K delta (PI3 Kd), on PI3K beta (PI3 Kb) and at PI3K alpha (PI3Ka) was below 5.00 throughout.
For `CCNC(=O)Nc1ccc(-c2nc(N3CCOC[C@@H]3CC)c3c(n2)C(C)(C)S(=O)(=O)C3)cc1` [Example 56, (S)-1-ethyl-3-(4-(4-(3-ethylmorpholino)-7,7-dimethyl-6,6-dioxido-5,7-dihydrothieno[3,4-d]pyrimidin-2-yl)phenyl)urea], the negative logarithm of the IC50 (pIC50) on PI3K gamma (PI3 Kg), at PI3K delta (PI3 Kd), at PI3K beta (PI3 Kb) and on PI3K alpha (PI3Ka) was below 5.00 throughout.
For the compound `CCNC(=O)Nc1ccc(-c2nc3c(c(N4CC5CCC(C4)O5)n2)CS(=O)(=O)C3)cc1` [Example 15, 1-(4-(4-(8-oxa-3-azabicyclo[3.2.1]octan-3-yl)-6,6-dioxido-5,7-dihydrothieno[3,4-d]pyrimidin-2-yl)phenyl)-3-ethylurea], the negative-log IC50 (pIC50) on PI3K gamma (PI3 Kg), at PI3K delta (PI3 Kd), on PI3K beta (PI3 Kb) and at PI3K alpha (PI3Ka) was below 5.00 in each case.
